Data published in US12528818B2, “Compositions and methods for inhibition of RAS” (Leidos Biomedical Research, Inc., priority 2021, dated 2026).

Columns and labels:
[1] = target: Avi-KRAS G12C (1-169) GppNHp/RAF1 RBD-3xFLAG (52-151) (Homo sapiens, UniProt P01116, G12C); assay: biochemical; settings: Raf1-GppNHp-KRAS G12C disruption, Raf1 RBD-KRAS G12C-GppNHp disruption assay IC50
[2] = target: GppNHp-loaded KRAS4b (amino acids 1-169) G12C/C118S protein (Homo sapiens, UniProt P01116, C118S/G12C); assay: Covalent cysteine 12 modification by MALDI-TOF MS, GppNHp-loaded KRAS G12C; format: biochemical; settings: 15 minutes reaction time
[3] = target: GDP-loaded KRAS4b (amino acids 1-169) G12C/C118S protein (Homo sapiens, UniProt P01116, C118S/G12C); assay: Covalent cysteine 12 modification by MALDI-TOF MS, GDP-loaded KRAS G12C; format: biochemical; settings: 15 minutes reaction time
[4] = compound 95 or later using 1 μM proteins
[5] = compounds 94 or before using 5 μM proteins

Structure (SMILES)	IC50 [1] [µM]	GppNHp-KRAS G12C percent of modification [2, 4]	GDP-KRAS G12C percent of modification [3, 4]	GppNHp-KRAS G12C percent of modification [2, 5]	GDP-KRAS G12C percent of modification [3, 5]
CC#CC(=O)N(C)C1CN(c2nc(OCC34CCCN3CCC4)nc3c(F)c(-c4ccc(F)c5sc(N)nc45)c(Cl)cc23)C1 [Compound 172]	0.5 to 5	D (percent of modification <10%)	B (50≤percent of modification <70%)	–	–
C=CC(=O)N1C2CCC1CN(c1nc(OCC34CCCN3CCC4)nc3c(F)c(-c4ccc(F)c5sc(N)nc45)c(Cl)cc13)C2 [Compound 128]	0.5 to 5	D (percent of modification <10%)	A (percent of modification ≥70%)	–	–
C=CC(=O)N1CC(C)(Nc2nc(OCC34CCCN3CCC4)nc3c(F)c(-c4ccc(F)c5sc(N)nc45)c(Cl)cc23)C1 [Compound 164]	0.5 to 5	C (10%≤percent of modification <50%)	B (50≤percent of modification <70%)	–	–
C=CC(=O)N1[C@H](C)CN(c2nc(OC[C@]34CCCN3C[C@H](F)C4)nc3c(F)c(-c4ccc(F)c5sc(N)nc45)c(C(F)(F)F)cc23)C[C@@H]1C [Compound 215]	< 0.5	C (10%≤percent of modification <50%)	B (50≤percent of modification <70%)	–	–
C=CC(=O)N1CCCC12CN(c1nc(OC[C@@H]3CCCN3C)nc3c(F)c(-c4ccc(F)c5sc(N)nc45)c(Cl)cc13)C2 [Compound 46]	> 20	–	–	D (percent of modification <10%)	B (50≤percent of modification <70%)
C=CC(=O)N1CC(N(c2nc(OC[C@]34CCCN3C[C@H](F)C4)nc3c(F)c(-c4ccc(F)c5sc(N)nc45)c(C(F)(F)F)cc23)C2CC2)C1 [Compound 178, 1-(3-((7-(2-amino-7-fluorobenzo[d]thiazol-4-yl)-8-fluoro-2-(((2R,7aR)-2-fluorotetrahydro-1H-pyrrolizin-7a(5H)-yl)methoxy)-6-(trifluoromethyl)quinazolin-4-yl)(cyclopropyl)amino)azetidin-1-yl)prop-2-en-1-one]	0.5 to 5	D (percent of modification <10%)	C (10%≤percent of modification <50%)	–	–
C=CC(=O)N1CCN(c2nc(OC[C@@H]3CCCN3C)nc3c(F)c(-c4ccc(F)c5sc(N)nc45)c(C4CC4)cc23)CC1 [Compound 176]	0.5 to 5	D (percent of modification <10%)	C (10%≤percent of modification <50%)	–	–
C=CC(=O)N1CCN(c2nc(OCC34CCCN3CCC4)nc3c(F)c(-c4ccc(F)c5sc(N)nc45)c(C(F)F)cc23)CC1 [Compound 246]	< 0.5	C (10%≤percent of modification <50%)	A (percent of modification ≥70%)	–	–
C=CC(=O)N1CC(N(c2nc(OC[C@]34CCCN3C[C@H](F)C4)nc3c(F)c(-c4ccc(F)c5sc(N)nc45)c(Cl)cc23)C2CC2)C1 [Compound 210]	> 20	D (percent of modification <10%)	C (10%≤percent of modification <50%)	–	–
C=C(F)C(=O)N1CCN(c2nc(OC[C@@]34CCCN3C[C@H](F)C4)nc3c(F)c(-c4ccc(F)c5sc(N)nc45)c(C(F)(F)F)cc23)C[C@H]1C [Compound 208]	5 to 20	D (percent of modification <10%)	B (50≤percent of modification <70%)	–	–
C=CC(=O)N1CC[C@@H](N(c2nc(OC[C@@]34CCCN3C[C@H](F)C4)nc3c(F)c(-c4ccc(F)c5sc(N)nc45)c(C(F)(F)F)cc23)C2CC2)C1 (single isomer, unassigned) [Compound 236]	< 0.5	B (50≤percent of modification <70%)	A (percent of modification ≥70%)	–	–
C=CC(=O)N1CC(N(CCC#N)c2nc(OC[C@@H]3CCCN3C)nc3c(F)c(-c4ccc(F)c5sc(N)nc45)c(Cl)cc23)C1 [Compound 141]	0.5 to 5	D (percent of modification <10%)	A (percent of modification ≥70%)	–	–
C=CC(=O)N1CC(Nc2nc(OC[C@@H]3CCCN3C)nc3c(F)c(-c4c(C)ccc5[nH]ncc45)c(Cl)cc23)C1 [Compound 75]	> 20	–	–	D (percent of modification <10%)	A (percent of modification ≥70%)
C=CC(=O)N1CC[C@H](N(C)c2nc(OC[C@@]34CCCN3C[C@H](F)C4)nc3c(F)c(-c4ccc(F)c5sc(N)nc45)c(C(F)(F)F)cc23)C1 [Compound 188]	< 0.5	C (10%≤percent of modification <50%)	C (10%≤percent of modification <50%)	–	–
C=CC(=O)N1CCN(c2nc(OC[C@]34CCCN3C[C@H](F)C4)nc3c(F)c(-c4ccc(F)c5sc(N)nc45)c(C(F)(F)F)cc23)C[C@@H]1C [Compound 165]	< 0.5	C (10%≤percent of modification <50%)	A (percent of modification ≥70%)	–	–
C=C(F)C(=O)N1C[C@H](C)N(c2nc(OC[C@]34CCCN3C[C@H](F)C4)nc3c(F)c(-c4ccc(F)c5sc(N)nc45)c(C(F)(F)F)cc23)C[C@H]1C [Compound 205]	0.5 to 5	D (percent of modification <10%)	B (50≤percent of modification <70%)	–	–
C=CC(=O)N1[C@H](C)CN(c2nc(OC[C@@]34CCCN3C[C@@H](F)C4)nc3c(F)c(-c4ccc(F)c5sc(N)nc45)c(C(F)(F)F)cc23)C[C@@H]1C [Compound 224]	0.5 to 5	D (percent of modification <10%)	A (percent of modification ≥70%)	–	–
C=CC(=O)N1CC[C@@H]2[C@H]1CN2c1nc(OCC23CCCN2CCC3)nc2c(F)c(-c3ccc(F)c4sc(N)nc34)c(-c3ccoc3)cc12 [Compound 121]	0.5 to 5	C (10%≤percent of modification <50%)	A (percent of modification ≥70%)	–	–
C=CC(=O)N1CCC(Nc2nc(OC[C@@H]3CCCN3C)nc3c(F)c(-c4ccc(F)c5sc(N)nc45)c(Cl)cc23)CC1 [Compound 47]	5 to 20	–	–	C (10%≤percent of modification <50%)	A (percent of modification ≥70%)
C=CC(=O)N1C[C@H](N(C)c2ncnc3c(F)c(-c4ccc(F)c5sc(N)nc45)c(C(F)(F)F)cc23)C2(CC2)C1 (atropisomer, axis not shown) [Compound 263]	> 20	D (percent of modification <10%)	B (50≤percent of modification <70%)	–	–
C=CC(=O)N1C[C@H](C)N(c2nc(OC[C@@]34CCCN3C[C@H](F)C4)nc3c(F)c(-c4ccc(F)c5sc(N)nc45)c(C(F)F)cc23)C[C@H]1C [Compound 291]	< 0.5	B (50≤percent of modification <70%)	A (percent of modification ≥70%)	–	–
C=CC(=O)N1CCN(c2nc(OC[C@@H]3CCCN3C)nc3c(F)c(-c4ccc(F)c5sc(N)nc45)c(CC#N)cc23)CC1 [Compound 144]	> 20	D (percent of modification <10%)	A (percent of modification ≥70%)	–	–
C=CC(=O)N1CCN(c2nc(OC[C@@H]3CCCN3C)nc3c(F)c(-c4ccc(F)c5sc(N)nc45)c(-c4cccnc4)cc23)CC1 [Compound 126]	> 20	D (percent of modification <10%)	D (percent of modification <10%)	–	–
C=CC(=O)N1CC(Nc2nc(OC[C@@H]3C[C@@H](OC)CN3C)nc3c(F)c(-c4ccc(F)c5sc(N)nc45)c(Cl)cc23)C1 [Compound 36]	< 0.5	–	–	A (percent of modification ≥70%)	A (percent of modification ≥70%)
C=CC(=O)N1CC(Nc2nc(OC[C@@H]3CCCN3C)nc3c(F)c(-c4ccc(F)c5sc(N)nc45)c(-c4ccoc4)cc23)C1 [Compound 93]	< 0.5	–	–	A (percent of modification ≥70%)	A (percent of modification ≥70%)
C=CC(=O)N1C[C@H](C)[C@@H](N(C)c2nc(OC[C@@]34CCCN3C[C@H](F)C4)nc3c(F)c(-c4ccc(F)c5sc(N)nc45)c(C(F)(F)F)cc23)C1 [Compound 296]	< 0.5	A (percent of modification ≥70%)	A (percent of modification ≥70%)	–	–
